{
  "source": "patent US6496728B2",
  "about": "“Methods for extracting substances using alternating current” (University of Utah Research Foundation, priority 2000, dated 2002)",
  "key": {"[1]": {"assay": "AC + DC offset iontophoretic transport across human epidermal membrane in side-by-side diffusion cell", "type": "in vitro ADME", "text": "The output AC voltage was manually adjusted between 3 to 8 volts to keep the skin resistance at 2 kΩ (±10%) and the DC offset value was kept constant at 0.25 V during the entire period of the experiment. The same permeants and sampling protocol were used as described in the Constant Current Session."}, "[2]": {"assay": "Constant current DC iontophoretic transport across human epidermal membrane in side-by-side diffusion cell", "method": "Iontophoretic transport studies were carried out in a side-by-side two-chamber diffusion cell (diffusional surface area of around 0.8 cm^2 and chamber volume of 2 mL) with HEM at 37° C. The apparent permeability coefficients (P) in each experiment were calculated by: [formula]\nwhere A is the membrane surface area, t is time, Q is the amount of permeant transported into the receiver chamber, and CD is the concentration of permeant in the donor chamber. The pH of the solutions in the donor and receiver chambers was checked after each iontophoresis run to detect possible water hydrolysis.\nConstant current DC transport experiments were carried out at the current level of 0.13 mA/cm^2 using a constant current iontophoretic device (phoresor II Auto, Model No. PM 850, Iomed, Inc., Salt Lake City, Utah) with Ag—AgCl electrodes. […] HEM resistance during iontophoresis was measured by monitoring the electrical potential drop across the membrane using two flexible Luggin capillaries which were inserted into the donor and receiver compartments of the diffusion cells. Each of the Luggin capillaries contained a calomel electrode connected to a voltmeter. The HEM resistance could be determined during iontophoresis according the output current level and the voltmeter readings.\nA trace amount of [^14C] […] One ml of sample was taken from the receiver chamber approximately every 30 minutes and replaced with the fresh PBS. A 10 μl sample was taken from the donor chamber every hour. Samples were mixed with 10 ml scintillation cocktail (Ultima Gold™, Packard Instrument Co., Meriden, Conn.) and assayed by a dual-labeled liquid scintillation counter (Parkard TriCarb™ Model 1900 TR Liquid Scintillation Analyzer)."}, "[3]": {"assay": "AC without DC offset (AC + passive) transport across human epidermal membrane in side-by-side diffusion cell", "type": "in vitro ADME", "settings": "for Slope of normalized TEA^+ flux versus time (linear regression): AC 50 Hz, no DC offset, data points between 100 and 330 minutes", "text": "The same protocol was used to reduce the skin electrical resistance to 2 kΩ as described in the AC+DC Offset method. […] Permeants and sampling protocol were the same as in the Constant Current and AC+DC Offset sessions as described above."}},
  "data": [
    {"smiles": "CC[N+](CC)(CC)CC.[Br-]", "note": "[TEA^+, tetraethylammonium bromide]", "values": [
      {"measurement": "Rate of change of normalized TEA^+ flux, fold higher with AC+DC Offset than with AC without DC Offset", "setting": "[1]; AC+DC Offset versus AC without DC Offset", "value": 7, "unit": "fold"},
      {"measurement": "Papp", "setting": "[1]; human, AC (50 Hz) with 0.25 V DC offset, target skin resistance 2 kΩ, all data points from 100 to 330 min, 42 points (7 samples), read-out: TEA^+ permeability coefficient, mean", "value": 60, "unit": "nm/s"},
      {"measurement": "Papp at 180 min", "setting": "[1]; human, AC (50 Hz) with 0.25 V DC offset, target skin resistance 2 kΩ, one time point (180 min), 7 samples, read-out: TEA^+ permeability coefficient, mean", "value": 62, "unit": "nm/s"},
      {"measurement": "Rate of change of normalized TEA^+ flux, fold higher with constant current DC than with AC without DC Offset", "setting": "[2]; constant current DC versus AC without DC Offset", "value": 20, "unit": "fold"},
      {"measurement": "Rate of change of normalized TEA^+ flux, fold higher with constant current DC than with AC+DC Offset", "setting": "[2]; constant current DC versus AC+DC Offset", "value": 3, "unit": "fold"},
      {"measurement": "Papp", "setting": "[2]; human", "value": 47, "unit": "nm/s"},
      {"measurement": "Papp at 180 min", "setting": "[2]; human", "value": 47, "unit": "nm/s"},
      {"measurement": "Slope of normalized TEA^+ flux versus time (linear regression)", "setting": "[3]; target skin resistance 2 kΩ", "value": "3 × 10^−10 cm sec^−1 min^−1"},
      {"measurement": "Slope of normalized TEA^+ flux versus time (linear regression)", "setting": "[3]; target skin resistance 4 kΩ", "value": "−3 × 10^−10 cm sec^−1 min^−1"},
      {"measurement": "Papp at 180 min", "setting": "[3]; human, AC (50 Hz) w/o DC offset, target skin resistance 2 kΩ, one time point (180 min), 4 samples, read-out: TEA^+ permeability coefficient, mean", "value": 9.9, "unit": "nm/s"}
    ]}
  ]
}
